The values that follow come from BindingDB's records for doi:10.1021/jm050578p (National Institutes of Health, 2006).

Amino acid sequences for entries named in this document (tags omitted). A change or cut given only in a name is not applied to a line headed by its entry.
UniProt P22303: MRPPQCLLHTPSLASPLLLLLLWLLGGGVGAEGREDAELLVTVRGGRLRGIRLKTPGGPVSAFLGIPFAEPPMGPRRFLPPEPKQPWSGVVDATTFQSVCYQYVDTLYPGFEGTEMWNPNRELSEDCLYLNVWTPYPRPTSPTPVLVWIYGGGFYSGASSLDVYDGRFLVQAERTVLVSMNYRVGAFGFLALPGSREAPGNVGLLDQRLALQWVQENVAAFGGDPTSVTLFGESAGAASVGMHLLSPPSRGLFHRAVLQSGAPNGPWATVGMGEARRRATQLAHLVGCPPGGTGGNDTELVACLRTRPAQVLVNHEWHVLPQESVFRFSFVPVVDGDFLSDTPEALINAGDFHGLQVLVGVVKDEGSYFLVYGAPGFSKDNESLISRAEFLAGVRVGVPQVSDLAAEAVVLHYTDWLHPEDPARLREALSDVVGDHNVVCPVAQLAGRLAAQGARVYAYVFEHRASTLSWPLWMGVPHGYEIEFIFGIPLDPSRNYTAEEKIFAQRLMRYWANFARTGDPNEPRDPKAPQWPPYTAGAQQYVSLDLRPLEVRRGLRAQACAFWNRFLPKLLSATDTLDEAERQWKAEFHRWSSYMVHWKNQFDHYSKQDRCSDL
UniProt P06276, whole entry: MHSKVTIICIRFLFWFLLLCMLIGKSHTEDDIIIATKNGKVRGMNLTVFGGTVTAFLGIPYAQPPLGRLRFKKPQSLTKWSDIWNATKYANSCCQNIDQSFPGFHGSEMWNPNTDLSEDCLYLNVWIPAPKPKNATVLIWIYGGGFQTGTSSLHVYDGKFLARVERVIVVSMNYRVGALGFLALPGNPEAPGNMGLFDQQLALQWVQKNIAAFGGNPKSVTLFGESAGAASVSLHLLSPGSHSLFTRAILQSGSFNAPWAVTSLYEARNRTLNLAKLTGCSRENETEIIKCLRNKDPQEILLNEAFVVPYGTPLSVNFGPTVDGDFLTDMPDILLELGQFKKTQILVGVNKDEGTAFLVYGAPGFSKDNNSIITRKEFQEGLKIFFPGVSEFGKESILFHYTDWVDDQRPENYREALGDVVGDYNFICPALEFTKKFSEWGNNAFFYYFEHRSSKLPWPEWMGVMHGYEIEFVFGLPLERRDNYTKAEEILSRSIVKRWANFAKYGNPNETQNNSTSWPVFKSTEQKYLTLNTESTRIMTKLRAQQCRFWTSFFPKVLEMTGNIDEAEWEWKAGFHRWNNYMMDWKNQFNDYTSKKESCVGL

Experiment [1] deals with Acetylcholinesterase (Homo sapiens, UniProt P22303). Conditions: pH 8; 37 °C.
Experiment [2] deals with Cholinesterase (Homo sapiens, UniProt P06276).

As a reminder, the IC50 is the midpoint of a concentration-inhibition curve.

In experiment [1], `Cc1ccccc1NC(=O)Oc1ccc2c(c1)[C@]1(C)CCOC1O2` (stereo partly drawn) [(2S)-2-methyl-5,7-dioxatricyclo[6.4.0.0^{2,6}]dodeca-1(12),8,10-trien-11-yl N-(2-methylphenyl)carbamate] registered an IC50 of 20 nM. In other words, the double-digit nanomolar range.

For `CC(C)c1ccc(NC(=O)Oc2ccc3c(c2)[C@@]2(C)CCN(C)C2N3C)cc1` (stereo partly drawn) [(+)-(3aR)-1,3a,8-Trimethyl-1,2,3,3a,8,8a-hexahydropyrrolo-[2,3-b]indol-5-yl N-(4-Isopropylphenyl)carbamate], 5100 nM corresponded to half-maximal inhibition in experiment [2] (IC50).

In experiment [1], `Cc1ccccc1NC(=O)Oc1ccc2c(c1)[C@@]1(C)CCOC1O2` (stereo partly drawn) [(+)-(3aR)-3a-Methyl-2,3,3a,8a-Tetrahydrofuro[2,3-b]benzofuran-5-yl N-(o-Tolyl)carbamate] showed an IC50 of 36 nM.
